Measurements taken from patent publication US20110097751A1.

Target: GLP-1 receptor on rat thyroid carcinoma 6-23 (clone 6) cells (rat) (UniProt P32301)
Assay: cell-based or functional assay

Substance: exenatide (synthetic exendin-4) (peptide)
- Mean Relative Potency (cAMP HTRF bioassay; sample REF50, 0.125 mg/mL, against exenatide reference standard): 0.467
- Mean Relative Potency (cAMP HTRF bioassay; sample REF075, 0.188 mg/mL, against exenatide reference standard): 0.758
- Mean Relative Potency (cAMP HTRF bioassay; sample REF100, against exenatide reference standard): 1.01
- Mean Relative Potency (cAMP HTRF bioassay; sample REF125, 0.313 mg/mL, against exenatide reference standard): 1.21
- Mean Relative Potency (cAMP HTRF bioassay; sample REF150, 0.375 mg/mL, against exenatide reference standard): 1.5
- Relative Potency % (cAMP HTRF bioassay; BYETTA Lot 1 against exenatide reference standard): 104%
- Relative Potency % (cAMP HTRF bioassay; BYETTA Lot 2 against exenatide reference standard): 108%
- Relative Potency % (cAMP HTRF bioassay; BYETTA Lot 3 against exenatide reference standard): 102%
- Relative Potency % (cAMP HTRF bioassay; EQW Lot 1 against exenatide reference standard): 78.1%
- Relative Potency % (cAMP HTRF bioassay; EQW Lot 2 against exenatide reference standard): 75.9%
- Relative Potency % (cAMP HTRF bioassay; EQW Lot 3 against exenatide reference standard): 88.6%
- Relative Potency %, average of 3 BYETTA lots (cAMP HTRF bioassay): 105%
- Relative Potency %, average of 3 EQW lots (cAMP HTRF bioassay): 80.9%
